From US20240139185A1, “COMPOUNDS THAT PARTICIPATE IN COOPERATIVE BINDING AND USES THEREOF” (Revolution Medicines, Inc., priority 2018, published 2024)

Assays:
[1] = biological target: cyclophilin A (CYPA) (Homo sapiens, UniProt P62937); assay: CYPA-compound binary complex formation by SPR; conditions: read-out: CYPA Binding Affinity
Procedure, shortened: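 Steady-state fit of SPR responses gave binding affinity. Analyte series: 50 μM downward, 2-fold, 10 points, running buffer HBS-P+ (0.05% Tween20, pH7.4, 2% DMSO), 60 s on/60 s off. Surface: biotinylated CypA-Avi captured at 4 μg/ml against a reference cell, regenerated with NaOH/guanidine.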

[2] = biological target: BRAF-GTP-KRAS-G12C complex (Homo sapiens, UniProt P01116+P62937, G12C); assay: KRAS-BRAF complex disruption through competition with CYPA-compound by TR-FRET; conditions: read-out: BRAF-GTP-KRAS-G12C Disruption; biochemical BRAF-KRAS G12C-GTP disruption assay EC50, with CYPA
Procedure, shortened: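 Compound-driven loss of KRAS–BRAF RBD TR-FRET signal, Eu-anti-His/APC-anti-GST pair (10/50 nM, 1.5 h), following a 3 h room-temperature preincubation of 50 nM His6-KRAS G12C-GTP and 500 nM CypA in 25 mM Hepes pH 7.3 buffer. EC50 by 4-parameter fit. Variants used wild-type KRAS in place of G12C or no CypA.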

[3] = tested on: pERK in H358 cells; assay: pERK inhibition in H358 cells; conditions: read-out: Cellular pERK inhibition, 4 hours treatment
Procedure, shortened: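 Human lung cancer H358 cells in RPMI/10% FBS were exposed to compound or DMSO for 4 h. Fixed and permeabilized cells were stained overnight at 4 C with anti-phospho-ERK1/2 (Thr202/Tyr204). Near-infrared imaging read the pERK signal at 800 nm, with DRAQ5 at 700 nm.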

Kd [1] [µM] | EC50 [2] [µM] | IC50 [3] [µM] | Compound
< 5 | 0.5 to 5 | < 1 | CC[C@H](C)[C@@H](C(=O)N[C@H]1Cc2cc(O)cc(c2)-c2ccc3c(c2)c(cn3C(C)(C)C#N)CC(C)(C)COC(=O)[C@@H]2CCCN(N2)C1=O)N(C)C(=O)[C@H]1CCN(C(=O)[C@@H](C)Cl)C1
> 15 | < 0.5 | < 1 | CC(C)[C@@H](C(=O)N[C@H]1Cc2cc(O)cc(c2)-c2ccc3c(C4CC4)c(C#N)n(c3c2)CC(C)(C)COC(=O)[C@@H]2CCCN(N2)C1=O)N(C)C(=O)C1CN(C(=O)CCl)C1
> 15 | 0.5 to 5 | > 10 | COc1ccccc1-c1cc2ccc3cc2n1C[C@H](C)COC(=O)[C@@H]1CCCN(N1)C(=O)[C@@H](NC(=O)[C@H](C(C)C)N(C)C(=O)C1CN(C(=O)[C@@H](C)Cl)C1)Cc1cc(O)cc-3c1
5 to 15 | < 0.5 | < 1 | CC1COC(=O)[C@@H]2CCCN(N2)C(=O)[C@@H](NC(=O)[C@H](C(C)C)N(C)C(=O)C2CN(C(=O)CCl)C2)Cc2cc(O)cc(c2)-c2ccc3c(c2)c(cn3C(C)(C)C#N)C1 (stereo partly drawn)
5 to 15 | 0.5 to 5 | > 10 | CC#CC(=O)N1CC[C@@H](C(=O)N(C)[C@H](C(=O)N[C@H]2Cc3cc(O)cc(c3)-c3ccc4c(C(C)(C)C#N)cn(c4c3)CC(C)(C)COC(=O)[C@@H]3CCCN(N3)C2=O)C(C)C)C1
5 to 15 | < 0.5 | < 1 | CC(C)[C@@H](C(=O)N[C@H]1Cc2cc(O)cc(c2)-c2ccc3c(C(C)(C)C#N)cn(c3c2)C[C@H](C)COC(=O)[C@@H]2CCCN(N2)C1=O)N(C)C(=O)C1CN(C(=O)CCl)C1
> 15 | 0.5 to 5 | > 10 | C=CC(=O)N1CC[C@@H](C(=O)N(C)[C@H](C(=O)N[C@H]2Cc3cc(O)cc(c3)-c3ccc4c(C(C)(C)C#N)cn(c4c3)CC(C)(C)COC(=O)[C@@H]3CCCN(N3)C2=O)C(C)C)C1
5 to 15 | 0.5 to 5 | > 10 | C=CC(=O)N1CC[C@@H](C(=O)N(C)[C@H](C(=O)N[C@H]2Cc3cc(O)cc(c3)-c3ccc4nc(C)n(c4c3)CC(C)(C)COC(=O)[C@@H]3CCCN(N3)C2=O)C(C)C)C1
> 15 | 0.5 to 5 | < 1 | C=CC(=O)N1CC[C@H](C(=O)N(C)[C@H](C(=O)N[C@H]2Cc3cc(O)cc(c3)-c3ccc4c(c3)c(cn4C(C)(C#N)CCOC)CC(C)(C)COC(=O)[C@@H]3CCCN(N3)C2=O)C(C)C)C1 (stereo partly drawn)
> 15 | < 0.5 | 1 to 10 | CC(C)[C@@H](C(=O)N[C@H]1Cc2cc(O)cc(c2)-c2ccc3c(-c4ccccc4OC(F)F)cn(c3c2)CC(C)(C)COC(=O)[C@@H]2CCCN(N2)C1=O)N(C)C(=O)C1CN(C(=O)CCl)C1
5 to 15 | < 0.5 | < 1 | CC(C)[C@@H](C(=O)N[C@H]1Cc2cc(O)cc(c2)-c2ccc3c(C4(C#N)CCCC4)cn(c3c2)C[C@H](C)COC(=O)[C@@H]2CCCN(N2)C1=O)N(C)C(=O)C1CN(C(=O)CCl)C1
> 15 | < 0.5 | > 10 | CCC[C@@H](C(=O)N[C@H]1Cc2cc(O)cc(c2)-c2ccc3c(C(C)(C)C#N)cn(c3c2)CC(C)(C)COC(=O)[C@@H]2CCCN(N2)C1=O)N(C)C(=O)C1CN(C(=O)CCl)C1
> 15 | < 0.5 | 1 to 10 | C=CC(=O)N1CC[C@H](C(=O)N(C)[C@H](C(=O)N[C@H]2Cc3cc(O)cc(c3)-c3ccc4c(-c5c(C#N)cccc5OC5CCOCC5)cn(c4c3)CC(C)(C)COC(=O)[C@@H]3CCCN(N3)C2=O)C(C)C)C1
< 5 | > 5 | > 10 | CC(C)[C@@H](C(=O)N[C@H]1Cc2cc(O)cc(c2)-c2ccc3c(C(C)(C)C#N)cn(c3c2)CC(C)(C)COC(=O)[C@@H]2CCCN(N2)C1=O)N1CCC2(CCCN(C(=O)CCl)C2)C1=O (single isomer, unassigned)
< 5 | < 0.5 | 1 to 10 | CC1COC(=O)[C@@H]2CCCN(N2)C(=O)[C@@H](NC(=O)[C@H](C(C)C)N(C)C(=O)C2CN(C(=O)CCl)C2)Cc2cc(O)cc(c2)-c2ccc3c(c2)c(cn3CC#N)C1 (stereo partly drawn)
5 to 15 | < 0.5 | < 1 | CC(C)[C@@H](C(=O)N[C@H]1Cc2cc(O)cc(c2)-c2ccc3c(C(C)(C)C#N)cn(c3c2)CC(C)(C)COC(=O)[C@@H]2CCCN(N2)C1=O)N(C)C(=O)C1CCN(C(=O)CCl)CC1
5 to 15 | < 0.5 | 1 to 10 | COCc1cccc(-c2cn3c4cc(ccc24)-c2cc(O)cc(c2)C[C@H](NC(=O)[C@H](C(C)C)N(C)C(=O)C2CN(C(=O)CCl)C2)C(=O)N2CCC[C@H](N2)C(=O)OCC(C)(C)C3)c1

Kd [1] [µM] | EC50 [2] [µM] | IC50 [3] [µM] | Compound
5 to 15 | < 0.5 | 1 to 10 | CC(C)[C@@H](C(=O)N[C@H]1Cc2cc(O)cc(c2)-c2ccc3c4c(n(c3c2)C[C@H](C)COC(=O)[C@@H]2CCCN(N2)C1=O)CCCC4C#N)N(C)C(=O)C1CN(C(=O)CCl)C1 (stereo partly drawn)
> 15 | < 0.5 | < 1 | C=CC(=O)N1CC[C@H](C(=O)N(C)[C@H](C(=O)N[C@H]2Cc3cc(O)cc(c3)-c3ccc4c(-c5ccccc5COC)c(C#N)n(c4c3)CC(C)(C)COC(=O)[C@@H]3CCCN(N3)C2=O)C(C)C)C1
5 to 15 | < 0.5 | < 1 | CC(C)[C@@H](C(=O)N[C@H]1Cc2cc(O)cc(c2)-c2ccc3c(-c4ccc(F)cc4C#N)cn(c3c2)CC(C)(C)COC(=O)[C@@H]2CCCN(N2)C1=O)N(C)C(=O)C1CN(C(=O)CCl)C1
5 to 15 | < 0.5 | < 1 | CC(C)[C@@H](C(=O)N[C@H]1Cc2cc(O)cc(c2)-c2ccc3c(-c4ccccc4OC4CCOCC4)cn(c3c2)CC(C)(C)COC(=O)[C@@H]2CCCN(N2)C1=O)N(C)C(=O)C1CN(C(=O)CCl)C1
> 15 | 0.5 to 5 | > 10 | CC(Cl)C(=O)N1CC(C(=O)N(C)[C@H](C(=O)N[C@H]2Cc3cc(O)cc(c3)-c3ccc4c(C5CCC5)cn(c4c3)CC(C)(C)COC(=O)[C@@H]3CCCN(N3)C2=O)C(C)C)C1 (stereo partly drawn)
5 to 15 | < 0.5 | < 1 | CC(C)[C@@H](C(=O)N[C@H]1Cc2cc(O)cc(c2)-c2ccc3c4c(n(c3c2)C[C@H](C)COC(=O)[C@@H]2CCCN(N2)C1=O)COCC4(C)C#N)N(C)C(=O)C1CN(C(=O)CCl)C1 (single isomer, unassigned) [63]
5 to 15 | < 0.5 | 1 to 10 | CC(C)[C@@H](C(=O)N[C@H]1Cc2cc(O)cc(c2)-c2ccc3c(C#N)nn(c3c2)CC(C)(C)COC(=O)[C@@H]2CCCN(N2)C1=O)N(C)C(=O)C1CN(C(=O)CCl)C1
> 15 | < 0.5 | 1 to 10 | CC(C)[C@@H](C(=O)N[C@H]1Cc2cc(O)cc(c2)-c2ccc3c(c2)n(c(=O)n3C2CCCCC2)C[C@H](C)COC(=O)[C@@H]2CCCN(N2)C1=O)N(C)C(=O)C1CN(C(=O)CCl)C1
< 5 | > 5 | > 10 | CC#CC(=O)N1CCC2(CC1)CCN([C@H](C(=O)N[C@H]1Cc3cc(O)cc(c3)-c3ccc4c(C(C)(C)C#N)cn(c4c3)CC(C)(C)COC(=O)[C@@H]3CCCN(N3)C1=O)C(C)C)C2=O
5 to 15 | < 0.5 | > 10 | CC(C)[C@@H](C(=O)N[C@H]1Cc2cc(O)cc(c2)-c2ccc3c(C#CC(C)(C)O)nn(c3c2)CC(C)(C)COC(=O)[C@@H]2CCCN(N2)C1=O)N(C)C(=O)C1CN(C(=O)CCl)C1
5 to 15 | > 5 | > 10 | CC#CC(=O)N1CCC(C(=O)N(C)[C@H](C(=O)N[C@H]2Cc3cc(O)cc(c3)-c3ccc4nc(C)n(c4c3)CC(C)(C)COC(=O)[C@@H]3CCCN(N3)C2=O)C(C)C)C1 (stereo partly drawn)
> 15 | < 0.5 | < 1 | COc1ccccc1-c1cc2ccc3cc2n1C[C@H](C)COC(=O)[C@@H]1CCCN(N1)C(=O)[C@@H](NC(=O)[C@H](C(C)C)N(C)C(=O)C1CN(C(=O)CCl)C1)Cc1cc(O)cc-3c1
> 15 | 0.5 to 5 | 1 to 10 | C=CC(=O)N1CC[C@H](C(=O)N(C)[C@H](C(=O)N[C@H]2Cc3cc(O)cc(c3)-c3ccc4c(c3)N(CC(C)(C)COC(=O)[C@@H]3CCCN(N3)C2=O)CC4(C)COc2ccccn2)C(C)C)C1 (stereo partly drawn)
5 to 15 | 0.5 to 5 | 1 to 10 | CC#CC(=O)N1CCC(C(=O)N(C)[C@H](C(=O)N[C@H]2Cc3cc(O)cc(c3)-c3ccc4c(C(C)(C)C#N)cn(c4c3)CC(C)(C)COC(=O)[C@@H]3CCCN(N3)C2=O)C(C)C)CC1
< 5 | 0.5 to 5 | < 1 | C=CC(=O)N1CCC(C(=O)N(C)[C@H](C(=O)N[C@H]2Cc3cc(O)cc(c3)-c3ccc4c(C(C)(C)C#N)cn(c4c3)CC(c3ccccc3)COC(=O)[C@@H]3CCCN(N3)C2=O)C(C)C)C1 (stereo partly drawn)
< 5 | < 0.5 | 1 to 10 | CCC1COC(=O)[C@@H]2CCCN(N2)C(=O)[C@@H](NC(=O)[C@H](C(C)C)N(C)C(=O)C2CN(C(=O)CCl)C2)Cc2cc(O)cc(c2)-c2ccc3c(C#N)cn(c3c2)C1 (stereo partly drawn)
